Screens (PubChem BioAssay)
Hits are enriched below; roughly 3.7% of the tested compounds scored in any of these assays.
A549 tox: counter-screen for Nrf2 inhibitors: cytotoxicity in A549 cells; 390,000 compounds, 0.16% hits; Potency, µM (top dose mostly 46 µM), for the others: at the top dose activity change, negative = cytotoxicity, hits mostly inhibitors; A549 ARE-Fluc cells, CellTiter-Fluor viability, 18-24 h; further: potency means the concentration at half of the fitted maximal effect; on the % scale 0 is the no-effect control and ±100 the full control effect
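A549 ARE_Fluc cells in 5% FBS OPTI-MEM were exposed to compounds in concentration-response for 18-24 h at 37 deg C. Viability was read by CellTiter-Fluor fluorescence (Ex 405/Em 525) after 30 min, before the luciferase read.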
Nrf2 ARE act: activates Nrf2 signaling; AREc32 ARE-luciferase reporter (MCF7-derived line), luminescence, 24 h; Potency, µM (highest dose often 46.1 µM), for inactives: top-dose activation, usual class: activators; 410,000 compounds, 0.31% hits; further: potency means the concentration at half of the fitted maximal effect; % of control where 0% means no effect; nearly all actives have a fitted effect of over 65% in size
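Luminescent ARE reporter assay in AREc32_Fluc cells: overnight plating at 37 deg C, 24 hr compound incubation, Steady-Glo added, 30 min RT before reading.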
Nrf2 block: blocks Nrf2 signaling; A549 ARE-Fluc reporter, luciferase luminescence, 18-24 h; Potency, µM (top dose mostly 46 µM), without a hit: top-dose activity change, negative = inhibition, usual class: inhibitors; AID 504444; 360,000 compounds, 2.1% hits; further: potency means the concentration at half of the fitted maximal effect; on the % scale 0 is the no-effect control and ±100 the full control effect; nearly all actives have a fitted effect of over 60% in size
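In this cell-based qHTS, ARE-driven firefly luciferase in A549 cells reports Nrf2 activity; the luminescent signal after BugLite lysis is the measured value, with a prior CellTiter-Fluor read for cell health.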
ClpP mod: qHTS Assay for Activators of ClpP; ATP-dependent Clp protease proteolytic subunit (Bacillus subtilis (strain 168)), P80244; purified B. subtilis ClpP, FRET peptide cleavage, 20 min; Potency, µM (titrated, usually from 57.5 µM), for inactives: at the highest dose activity change, negative = active; 340,000 compounds, 1.9% hits; AID 651965, 2013; active means well fitted falling curve with a large enough effect; inconclusive means small, poorly fitted or top-dose-only effect; inactive means no such curve, though single readings can be large or run the other way; further: potency means the concentration at half of the fitted maximal effect; the source files actives as falling curves though it sought activators and does not explain the sign; nearly all actives have a fitted effect of over 65% in size
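ClpP 10 microg/mL final, pH 8 Tris/KCl buffer with BSA, glycerol, Tween-20; compound pinned in; FRET-FV substrate; RT 20 min; Ex320/Em430; ΔFRET vs ADEP 5.8 microM, DMSO, no enzyme.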
miR-21 reporter: raises the signal of a miR-21 reporter | Potency, µM (doses to about 38.3 µM), for inactives: top-dose reporter change, positive = more light | HeLa miR-21 FLuc reporter, luciferase, 48 h | AID 2288 | 340,000 tested, under 10 active; active = well fitted rising curve with a large enough effect; inconclusive = small, poorly fitted or top-dose-only effect; inactive = no such curve, though single readings can be large or run the other way;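 also: % of control where 0% means no effect; miR-21 action dims this reporter so a rising signal means less miR-21 action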
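HeLa cells endogenously expressing miR-21, stably carrying CMV-driven firefly luciferase with a downstream miR-21 binding site, 2000 cells/well. Titrations up to approximately 40 uM, 48 hours; luciferase luminescence read.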
TCR act: activators of T cell receptors | primary human leukocytes, anti-CD3, IL-2 HTRF, 48 h | 330,000 tested, under 10 active | Potency, µM (highest dose often 9.22 µM), without a hit: at the top dose activation of IL-2 secretion, actives largely listed as activators; further: % of control where 0% means no effect
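1) Mix primary human leukocytes, a-CD3 beads and compound. 2) Incubate 48 hr. 3) Add HTRF IL-2 reagents (a-IL-2-K, a-IL-2-d2).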
* hit, by the source's call; ? = inconclusive; nt = not tested or not shown; [ ] = another dose, or the depositor's remark. Unless noted, the call rests on the fitted dose curve; in most records, active means well fitted curve in the direction sought with a large enough effect; inconclusive means small, poorly fitted or top-dose-only effect, or another doubt; inactive means no such curve, though single readings can be large; an effect the other way counts as inactive or inconclusive.

Field names: A = A549 tox; B = Nrf2 ARE act; C = Nrf2 block; D = ClpP mod; E = miR-21 reporter; F = TCR act
1) COC(=O)C1=C(c2ccc(-c3ccccc3)c(F)c2)C[C@@H]2CC[C@H]1N2C(=O)NCCOc1ccc(OC)cc1
  A = -17.1% | B = -0.6% | C = 16.4µM* | D = -5.0% | E = nt | F = -10.7%
2) COC(=O)C1=C(c2ccc(OCc3ccccc3)cc2)C[C@@H]2CC[C@H]1N2C(=O)NC1CCN(Cc2ccccc2)CC1
  A = 20.6µM* | B = -1.7% | C = 20.6µM* | D = -7.5% | E = nt | F = -6.0%
3) COC(=O)C1=C(c2cccc(OCc3ccccc3)c2)C[C@@H]2CC[C@H]1N2C(=O)NCc1cccc(OC)c1
  A = -6.1% | B = 4.7% | C = ? | D = -1.7% | E = nt | F = 4.6%
4) O=C(Nc1nc2c(s1)CCCCCC2)Nc1ccc(F)cc1F
  A = 0.4% | B = 6.5% | C = nt | D = 0.0% | E = -60.0% | F = nt
5) O=c1onc(-c2cccnc2)n1-c1ccccc1F
  A = ? | B = -0.2% | C = 0.0% | D = 1.8% | E = -1.1% | F = 1.6%
6) COC(=O)C1=C(c2ccc(OC(F)(F)F)cc2)C[C@@H]2CC[C@H]1N2C(=O)NCCOc1ccc(OC)cc1
  A = -22.0% | B = 3.4% | C = 23.1µM* | D = 1.7% | E = nt | F = -7.3%
7) COC(=O)C1=C(c2ccc3ccccc3c2)C[C@@H]2CC[C@H]1N2C(=O)NCc1ccc(F)cc1
  A = -17.6% | B = -0.5% | C = ? | D = -1.3% | E = nt | F = 13.1%
8) COC(=O)C1=C(c2ccc(OC(F)(F)F)cc2)C[C@@H]2CC[C@H]1N2C(=O)NCCNC(C)=O
  A = 9.4% | B = -0.4% | C = 2.7% | D = -0.8% | E = nt | F = -4.7%
9) COC(=O)C1=C(c2ccc(-c3ccccc3)c(F)c2)C[C@@H]2CC[C@H]1N2C(=O)NC1CCCCC1
  A = ? | B = 0.1% | C = 18.4µM* | D = -11.9% | E = nt | F = 6.1%
10) COC(=O)C1=C(c2ccc(-c3ccccc3)c(F)c2)C[C@@H]2CC[C@H]1N2C(=O)NCCCOC(C)C
  A = -23.4% | B = -0.4% | C = 16.4µM* | D = 0.8% | E = nt | F = -2.0%
11) COC(=O)C1=C(c2ccc3ccccc3c2)C[C@@H]2CC[C@H]1N2C(=O)NCc1ccc(C(F)(F)F)cc1
  A = -24.6% | B = -0.1% | C = 23.1µM* | D = -7.7% | E = nt | F = -0.4%
12) Cc1cccc(N2C(=O)CSC23C(=O)N(CC(=O)Nc2cccc(Cl)c2)c2ccccc23)c1 (stereo not given)
  A = -24.3% | B = -0.1% | C = ? | D = -1.1% | E = ? | F = nt
13) O=c1[nH]c(=S)[nH]c(O)c1N=Nc1ccc(SC(F)F)cc1
  A = -0.2% | B = 15.8µM* | C = 4.9% | D = nt | E = -35.5% | F = 1.6%
14) O=c1[nH]c(=S)[nH]c(O)c1N=Nc1ccc(S(=O)(=O)N2CCc3ccccc32)cc1
  A = -4.4% | B = 8.91µM* | C = 19.8% | D = nt | E = -12.7% | F = -8.4%
15) CC(C)c1ccc(N=Nc2c(O)[nH]c(=O)[nH]c2=O)cc1
  A = -17.5% | B = 3.0% | C = -28.5% | D = 1.0% | E = -33.0% | F = 3.8%
16) Cc1ccc(S(=O)(=O)N2CCC(=O)N(CCOC(=O)Nc3cccc(Cl)c3)CC2)cc1
  A = -15.0% | B = 6.5% | C = ? | D = -1.9% | E = -15.9% | F = -1.2%
17) O=S(=O)(c1ccc(F)c(F)c1F)N1CCN(c2ncnc3sccc23)CC1
  A = -0.4% | B = 4.9% | C = 13µM* | D = -2.4% | E = nt | F = -34.3%
18) CCOC(=O)c1ccc(NC(=O)Nc2cc3c(cc2N2CCCCC2)n(CC)c(=O)n3CC)cc1
  A = -12.1% | B = 4.6% | C = ? | D = -14.5% | E = ? | F = nt
19) Cc1ccc(NC(=O)Nc2cc3c(cc2N2CCCCC2)n(C)c(=O)n3C)cc1Cl
  A = -19.0% | B = 0.0% | C = 20.6µM* | D = -19.5% | E = ? | F = nt
20) Nc1c(C(=O)NCc2ccco2)c2nc3ccccc3nc2n1Cc1ccc(F)cc1
  A = -20.8% | B = 17.8µM* | C = -16.4% | D = 28.2µM* | E = 23.3% | F = 4.7%
21) COc1ccc(Cn2c(N)c(C(=O)NCc3ccco3)c3nc4ccccc4nc32)cc1
  A = -4.5% | B = 29.8% | C = ? | D = 31.6µM* | E = 6.4% | F = -2.1%
22) COc1ccc(CCNC(=O)c2ccc3c(c2)N(Cc2cccc(Cl)c2)C(=O)CS3)cc1OC
  A = 0.0% | B = 3.6% | C = -13.9%[9.27 µM] | D = -14.5% | E = ? | F = nt
23) Cc1cccc(C(=O)Nc2nnc(SCC(=O)NCc3ccco3)s2)c1
  A = 2.0% | B = 3.16µM* | C = 8.9% | D = -0.6% | E = nt | F = -3.8%

One compound at a time, from the list above. Order of values: A549 tox, Nrf2 ARE act, Nrf2 block, ClpP mod, miR-21 reporter, TCR act
COC(=O)C1=C(c2ccc(-c3ccccc3)c(F)c2)C[C@@H]2CC[C@H]1N2C(=O)NCCOc1ccc(OC)cc1 as listed: -17.1%, -0.6%, 16.4µM*, -5.0%, nt, -10.7%
Cc1ccc(NC(=O)Nc2cc3c(cc2N2CCCCC2)n(C)c(=O)n3C)cc1Cl as listed: -19.0%, 0.0%, 20.6µM*, -19.5%, ?, nt
